Series [1] has as its system Peptide H-15: H2N-(CH2)4-CO-Pro-Leu-Ala-Phe-Val-Ala-NH-CH2-Fc.
Series [2] concerns Peptide H-16: H2N-(CH2)4-CO-Pro-Leu-Ala-Gly-Val-Ala-NH-CH2-Fc.
The test system of series [3] is Peptide H-3: H2N-(CH2)4-CO-Pro-Leu-Arg-Phe-Gly-Ala-NH-CH2-Fc.

“intrinsic cathepsin B in pooled human serum (HS), activated with DTT in MES (pH 5.0)”: the “cathepsin B activity (1/τ), activated 5% HS in 0.5X PB, 8 channels” value in series [1] is recorded as “(33.2±3.0)×10^-4 s^-1”.

For the substance “intrinsic cathepsin B in pooled human serum (HS), non-activated”, in series [1], the 1/τ, non-activated 5% HS in 0.5X PB (unspiked sample of the spiking study) was determined as 0.00121 s⁻¹ and the cathepsin B activity (1/τ), non-activated 5% HS in 0.5X PB, 8 channels worked out at 0.00122 s⁻¹.

“recombinant human cathepsin B (rhCB), activated by incubation in 25 mM MES buffer (pH 5.0) containing 5 mM DTT for 15 min”: in series [2], the 1/τ, 6.0 nM cathepsin B, MES pH 5.0, multi-peptide MEA, average of channels 1-3 was found to be 0.00089 s⁻¹; the 1/τ, 6.0 nM cathepsin B, MES pH 5.0, multi-peptide MEA, channel 1 worked out at 0.000783 s⁻¹; the 1/τ, 6.0 nM cathepsin B, MES pH 5.0, multi-peptide MEA, channel 2 is 0.000888 s⁻¹; the 1/τ, 6.0 nM cathepsin B, MES pH 5.0, multi-peptide MEA, channel 3 was found to be 0.001 s⁻¹. In series [3], this substance had a 1/τ, 6.0 nM cathepsin B, MES pH 5.0, multi-peptide MEA, average of channels 7-9 of 0.000736 s⁻¹; a 1/τ, 6.0 nM cathepsin B, MES pH 5.0, multi-peptide MEA, channel 7 of 0.000734 s⁻¹; a 1/τ, 6.0 nM cathepsin B, MES pH 5.0, multi-peptide MEA, channel 8 of 0.000826 s⁻¹; a 1/τ, 6.0 nM cathepsin B, MES pH 5.0, multi-peptide MEA, channel 9 of 0.000648 s⁻¹. In addition, in series [1], the 1/τ (inverse exponential decay time constant of the ACV peak current = protease activity), 6.0 nM cathepsin B, MES pH 5.0, channel 1 was found to be 0.00055 s⁻¹; the “1/τ at saturation, activated rhCB above 1.0 nM in 0.5X PB (pH 7.4)” value is “saturated at about 45×10^-4 s^-1 when the rhCB concentration is above 1.0 nM”; the 1/τ, 6.0 nM cathepsin B, MES pH 5.0, average of channels 1-6 was 0.000663 s⁻¹; the 1/τ, 6.0 nM cathepsin B, MES pH 5.0, channel 2 was 0.000734 s⁻¹. In series [1], the 1/τ, 6.0 nM cathepsin B, MES pH 5.0, channel 3 was 0.000588 s⁻¹; the 1/τ, 6.0 nM cathepsin B, MES pH 5.0, channel 4 is 0.000684 s⁻¹; the 1/τ, 6.0 nM cathepsin B, MES pH 5.0, channel 5 worked out at 0.000779 s⁻¹; the 1/τ, 6.0 nM cathepsin B, MES pH 5.0, channel 6 came out at 0.000645 s⁻¹. In series [1], this substance displayed a 1/τ, 6.0 nM cathepsin B, MES pH 5.0, multi-peptide MEA, average of channels 4-6 of 0.000679 s⁻¹; a 1/τ, 6.0 nM cathepsin B, MES pH 5.0, multi-peptide MEA, channel 4 of 0.000582 s⁻¹; a 1/τ, 6.0 nM cathepsin B, MES pH 5.0, multi-peptide MEA, channel 5 of 0.000889 s⁻¹; a 1/τ, 6.0 nM cathepsin B, MES pH 5.0, multi-peptide MEA, channel 6 of 0.000566 s⁻¹. Further, in series [1], the “1/τ, non-activated 5% HS in 0.5X PB spiked with 1.0 nM activated rhCB” value was “(68.4±7.53)×10^-4 s^31 1”; the “average activity (1/τ), 1.0 nM activated cathepsin B in 25 mM MES buffer (pH 5.0)” value is given as “(1.21±0.46)×10^-4 s^-1”; the “average measured activity (1/τ), 1.0 nM activated cathepsin B in 0.5X PB (pH 7.4), 8 channels” value is reported as “(42.1±3.7)×10^-4 s^-1”; the “inverse decay constant (1/τ), 1.0 nM activated cathepsin B in 0.2X PBS (pH 7.4)” value was “(7.65±0.42)×10^-4 s^-1”. Besides, in series [1], the “inverse decay constant (1/τ), 1.0 nM activated cathepsin B in 0.5X PBS (pH 7.4)” value is “(11.44±0.64)×10^-4 s^-1”; the “inverse decay constant (1/τ), 1.0 nM activated cathepsin B in 1X PBS (pH 7.4)” value was “(4.2±1.1)×10^-4 s^-1”; the “specificity constant kcat/KM (slope of 1/τ against [rhCB], 0 to 1.0 nM, 0.5X PB pH 7.4)” value is “kcat/KM=(3.89±0.28)×10^6 M^-1s^-1”.

As for “recombinant human cathepsin B (rhCB), non-activated (~60% 37 kDa proenzyme and ~40% 29 kDa mature enzyme)”, in series [1], the 1/τ, non-activated 5% HS in 0.5X PB spiked with 1.0 nM non-activated rhCB (0.40 nM naturally active) worked out at 0.0013 s⁻¹.
